Measurements published in US20250027930A1, “SMALL MOLECULES FOR REPROGRAMING ANTI-TUMOR IMMUNITY OF T CELLS” (THE SCRIPPS RESEARCH INSTITUTE, priority 2021, published 2025).

Key:
[1] = tested on: B16-OVA tumors
[2] = tested on: Nalm6-GD2 expressing luciferase leukaemia; test: In vivo leukaemia progression after CAR-T cell injection; details: CAR-T cells expanded with i9 (3 uM) or i12 (1 uM); vs vehicle
[3] = tested on: Nalm6-GD2 expressing luciferase; test: In vitro activity of expanded CAR-T cells against target cell; details: CAR-T cells treated with i9 (3 uM) or i12 (1 uM); vs vehicle treated CAR-T cells

Molecule	mice still alive ([1]; by day 30, OT-I (expanded with Taz), no control mice survived up to day 24) [%]	median tumor size relative to that treated with OT-I (expanded without Taz) ([1]; treatment day 20)	in vivo tumor control [2]	survival of tumor bearing mice [2]	anti-tumor activity against the target cell [3]
CCN(c1cc(-c2ccc(CN3CCOCC3)cc2)cc(C(=O)NCc2c(C)cc(C)[nH]c2=O)c1C)C1CCOCC1 [Taz, Tazemetostat]	> 80	1/8	–	–	–
K-Ras(G12C) Inhibitor 9	–	–	better in vivo tumor control	prolonged survival	higher anti-tumor activity
C=CC(=O)N1CCN(C(=O)CNc2cc(I)c(Cl)cc2O)CC1 [K-Ras(G12C) inhibitor 12]	–	–	better in vivo tumor control	prolonged survival	higher anti-tumor activity
